The results in this text go back to BindingDB's records for 3965704.

The chains behind the UniProt entries cited, without tags or fusion partners. Residues count along the entry.
UniProt P37136, 32-614 limits assumed: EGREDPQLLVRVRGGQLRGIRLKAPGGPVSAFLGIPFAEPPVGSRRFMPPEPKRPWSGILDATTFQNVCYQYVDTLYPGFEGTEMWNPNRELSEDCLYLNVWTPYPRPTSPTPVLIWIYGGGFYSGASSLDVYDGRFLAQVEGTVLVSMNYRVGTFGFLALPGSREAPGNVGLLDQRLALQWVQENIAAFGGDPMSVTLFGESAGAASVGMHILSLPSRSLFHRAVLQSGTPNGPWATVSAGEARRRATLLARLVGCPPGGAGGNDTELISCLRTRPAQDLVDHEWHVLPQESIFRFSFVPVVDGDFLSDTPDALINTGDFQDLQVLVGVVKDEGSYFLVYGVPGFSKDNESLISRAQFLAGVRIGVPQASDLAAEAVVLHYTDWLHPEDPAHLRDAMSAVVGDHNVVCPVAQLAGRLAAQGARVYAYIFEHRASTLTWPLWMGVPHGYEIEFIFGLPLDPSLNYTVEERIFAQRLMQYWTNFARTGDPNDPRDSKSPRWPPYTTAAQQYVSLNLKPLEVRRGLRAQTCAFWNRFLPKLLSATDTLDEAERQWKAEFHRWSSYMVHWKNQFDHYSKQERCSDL

For this test, the target named is Acetylcholinesterase (Rattus norvegicus, UniProt P37136). Kind of test: Effect on Acetylcholinesterase activity in rat brain homogenates.

By IC50 is commonly meant the point on the concentration scale where inhibition reaches its midpoint. `CC[N+](C)(CC)CC(=O)CCN1C(=O)CCC1=O` displayed an IC50 of 170 µM.
